Data as given in US11382920B2, “Therapeutic effects of Guanabenz treatment in vanishing white matter” (Stichting VUmc, priority 2017, dated 2022).

System: ATF4 expression
Test: Stress-sensitive ATF4 luciferase reporter transfection assay (pNL1.1-mATF4) in U373 cells
Format: cell-based, human
Details: 15 μM compound added with 3 nM thapsigargin for 16 hours
Experimental: FIG. 9. […] ATF4 expression was assessed with a luciferase reporter construct under regulation of the murine Atf4 promoter and 5′ non-coding region. Cells were transfected as described. The ISR was induced by administration of 3 nM thapsigargin (TG) to the cell culture medium. 15 μM ISR modulators Gb, Sephin1 (S1, also a GADD34 inhibitor, but without α2 adrenergic effect) or ISRIB (I, an activator of eIF2B) were added simultaneously with or without TG for 16 hours (e.g. −TG/+Gb and +TG/+Gb). Guanfacin (Gf), an a2 adrenergic receptor agonist without reported GADD34 modulating activity, was included in parallel as negative control. Cell stress modulators Gb and S1 increase ATF4 expression in the presence of TG. This effect was not observed with Gf and was opposite in ISRIB. […]
The a2 adrenergic receptor agonist Guanabenz (Gb) has been reported to also target GADD34 and thereby impact on a negative feedback loop of the ISR [16]. […] Expression from the reporter construct was measured 2 days after transfection with a commercially available chemiluminescent assay and can be directly interpreted as a measure for ATF4 expression.
ATF4 expression was investigated in the absence or presence of ISR activation. The ISR was induced by addition of thapsigargin to the culture medium 16 hours before cells were harvested and ATF4 synthesis was measured. […]

## NC(N)=N/N=C/c1ccccc1Cl [Sephin1]
  ATF4 expression under stress: increased
